Test: Alamar Blue cell viability assay
Type: cell-based
Conditions: human; PHH
Experimental: Alamar Blue cell viability reagent (Cat#DAL1100 Life Technologies, Chicago, Ill.) was diluted 1 to 10 in Maintenance Media and added to the cells. Cells were incubated for 4 h at 37° C. and the fluorescence signal, which is proportional to the number of live cells, was read using a fluorimeter with excitation/emission spectra set at 560/590 nm, respectively. Data were converted into percentages of the untreated control and non-linear regression was performed to calculate CC50 values.
PHH were plated in collagen coated tissue culture plates in Plating Media and after 4-hour incubation at 37° C., cells were switched to Maintenance Media. On the next day, the cells were infected with 500 genome equivalents per cell of Genotype-A clinical isolate 21P (ProteoGenex, Culver City, Calif.) in 100 μl Maintenance Media supplemented with 4% PEG 8000 (Cat#V3011 Promega, Madison, Wis.). After an overnight incubation the inoculum was removed and the cells were washed three times with William's Media E and maintained in Maintenance Media. […] Following the transfection, the cells were incubated at 37° C. in a humidified incubator and media was changed every 3-4 days. The assay was terminated on day 14 post infection and cell viability was assessed by Alamar Blue. […]

SMILES: O=C(O)c1ccc(O)c2ncccc12 [Example 2, 8-HQ-5-COOH, reference compound]
- CC50: ≥ 100 µM
